This series can be described thus: Stability of isoquercitrin (or catechin) in solution with L-arginine and sodium ascorbate at 50° C., by HPLC. In kind it is physicochemical. As to conditions: aqueous solution with L-arginine and sodium ascorbate; for amount of intact compound remaining, of the initial amount in the solution: HPLC. The procedure: An exemplary isoquercitrin/L-arginine mixture was prepared by mixing 0.01 mol isoquercitrin with an aqueous solution containing 0.02 mol L-arginine, heating the mixture to 80° C. until the isoquercitrin dissolved completely, and adding 0.001 mol sodium ascorbate. After cooling, the stability of isoquercitrin was tested by heating the mixture to 50° C. and quantifying by HPLC the amount of intact isoquercitrin remaining after 0 h, 5 h, and 24 h. […] A similar study was performed to assess the stability of a flavonoid related to isoquercitrin, i.e., catechin, after dissolving it with L-arginine and sodium ascorbate. […] It was quite unexpected that only 1.9% of the isoquercitrin degraded after 24 h, as compared to 97.7% of the catechin under identical conditions.

Results on 1 substance are retold here after patent US10617705B1, “Isoquercitrin compositions” (priority 2019, dated 2020).

With catechin, the “amount of intact compound remaining, of the initial amount in the solution” value was 30.8% (5 h at 50° C.) and 2.3% (24 h at 50° C.). For the same substance, the compound degraded (after 24 h at 50° C.) came out at 97.7%.
